Literature values as cited in patent US9307763B2, “Ligands for odor receptors and olfactory neurons” (The Regents of the University of California, priority 2010, dated 2016).

Test system: CO2 responsive neurons
Details: activities normalized from 100 (strongest observed activator) to −100 (most inhibitory); averaged across the top 2 responders of the 4 species; cited from earlier work

In the case of `CCC(=O)Br`, the “Final Activity” value is given as −88.
